{
  "source": "paper PMC8156151",
  "about": "(The European Respiratory Journal, 2021)",
  "system": "CCL18 (PARC)",
  "experiment": "Plasma biomarker CCL18",
  "assay_type": "in vivo, human",
  "details": "10 mg vs placebo, ANCOVA",
  "procedure": "All patients, investigators, sites and study sponsor personnel were blinded to the study group assignments throughout the study. Patients underwent study-specific assessments on days 2, 3, 7, 14 and 15, and a post-study assessment was carried out 26–30 days after the last day of the study period. Assessments included vital signs (supine blood pressure, pulse, oxygen saturation, oral temperature and respiratory rate), spirometry, 12-lead ECG, physical examination, laboratory safety screen (haematology, biochemistry, urinalysis and urinary drugs of abuse screen) and blood sampling for PK measurements. All adverse events and concomitant medications were recorded from the time of the screening visit until the post-study follow-up visit. BAL was performed at day −1 (24 h before the first dose) and at day 14 (2 h after the last dose). […]\nBAL cells were separated from fluid by centrifugation, and cells were collected, stained with antibodies (supplementary material) and then fixed before analysis using a LSR Fortessa flow cytometer (Becton Dickinson, Franklin Lakes, NJ, USA). Data were analysed using FlowJo software (Tree Star, Ashland, OR, USA). […] Gal-3 expression (mean fluorescence intensity) was determined from the macrophage gate (supplementary figures S1 and S2). […] Samples were analysed by magnetic Luminex assay (R&D Systems, Minneapolis, MN, USA) or ELISA. […]",
  "data": [
    {"smiles": "OC[C@H]1O[C@@H](S[C@@H]2O[C@H](CO)[C@H](O)[C@H](n3cc(-c4cccc(F)c4)nn3)[C@H]2O)[C@H](O)[C@@H](n2cc(-c3cccc(F)c3)nn2)[C@H]1O", "note": "[TD139]", "values": [
      {"measurement": "CCL18 (PARC) difference in least square means % baseline (95% CI)", "result": "−35.0 (−65.8– −4.2) % baseline"}
    ]}
  ]
}
